“And” between values parts separate entries of the source, which are not always exact repeats. Equal values may be shown once. Read-outs that look alike come from different tables or passages of the source.
Test system: castrated (CX) immature male rats bearing a DHT implant
Conditions: for CX + DHT Antagonistic activity % Inhibition Prostate / CX + DHT Antagonistic activity % Inhibition Bulbo / CX + DHT Antagonistic activity % Inhibition SV: 7 days; for CX + DHT Antagonistic activity % Inhibition Prostate: ventral prostate weight; for CX + DHT Antagonistic activity % Inhibition Bulbo: bulbocavernosus muscles weight; for CX + DHT Antagonistic activity % Inhibition SV: seminal vesicles weight; for antagonistic activity (in words): immature castrated rats supplemented with DHT, 7 days oral

In the case of `CC1(C)C(=O)N(c2ccc(C#N)c(Cl)c2)C(=O)N1CCCOc1ccc(-c2ccncc2)cc1Cl` [EM-9150], the “CX + DHT Antagonistic activity % Inhibition Prostate” value (0.1 mg/rat/po) is reported as 30 ± 7%, the “CX + DHT Antagonistic activity % Inhibition Bulbo” value (0.5 mg/rat/po) is reported as 67% and the “CX + DHT Antagonistic activity % Inhibition SV” value (0.5 mg/rat/po) is reported as 92%. The “CX + DHT Antagonistic activity % Inhibition Prostate” value (0.5 mg/rat/po) was 55% and 55 ± 5% and the “antagonistic activity (in words)” value was “comparable to bicalutamide and flutamide”.
In the case of `CC1(C)C(=O)N(c2ccc(C#N)c(Cl)c2)C(=O)N1CCCOc1ccc(-c2cc[n+]([O-])cc2)cc1Cl` [EM-9156], the “CX + DHT Antagonistic activity % Inhibition Prostate” value (0.1 mg/rat/po) is reported as 27 ± 3%, the “CX + DHT Antagonistic activity % Inhibition Bulbo” value (0.3 mg/rat po) is reported as 57 (0.3 mg/ rat) % and the “CX + DHT Antagonistic activity % Inhibition SV” value (0.3 mg/rat po) is reported as 89 (0.3 mg/ rat) %. The “CX + DHT Antagonistic activity % Inhibition Prostate” value (0.3 mg/rat po) was 55 (0.3 mg/ rat) % and the “antagonistic activity (in words)” value was “comparable to bicalutamide and flutamide”.
With `CC1(C)C(=O)N(c2ccc(C#N)c(F)c2)C(=O)N1CCCOc1ccc(-c2cc[n+]([O-])cc2)cc1` [EM-9176] the “CX + DHT Antagonistic activity % Inhibition Bulbo” value (0.1 mg/rat po) was 17 (0.1 mg/rat) %, the “CX + DHT Antagonistic activity % Inhibition SV” value (0.1 mg/rat po) was 51 (0.1 mg/rat) % and the “CX + DHT Antagonistic activity % Inhibition Prostate” value (0.1 mg/rat/po) was 34 (0.1 mg/rat) %.
For `CC1(C)C(=O)N(c2ccc(C#N)c(C(F)(F)F)c2)C(=O)N1CCOc1ccc(-c2cc[n+]([O-])cc2)cc1` [EM-9180], the “CX + DHT Antagonistic activity % Inhibition Bulbo” value (0.5 mg/rat/po) was 71%, the “CX + DHT Antagonistic activity % Inhibition SV” value (0.5 mg/rat/po) was 85% and the “CX + DHT Antagonistic activity % Inhibition Prostate” value (0.5 mg/rat/po) was 53%.
`CC1(C)C(=O)N(c2ccc(C#N)c(Cl)c2)C(=O)N1CCCOc1ccc(-c2ccncc2)cc1F` [EM-9198] was tested, and the “CX + DHT Antagonistic activity % Inhibition Bulbo” value (0.5 mg/rat/po) was 71%, the “CX + DHT Antagonistic activity % Inhibition SV” value (0.5 mg/rat/po) was 90% and the “CX + DHT Antagonistic activity % Inhibition Prostate” value (0.5 mg/rat/po) was 52%.
`CC1(C)C(=O)N(c2ccc(C#N)c(C(F)(F)F)c2)C(=O)N1Cc1ccc(-c2ccncc2)cc1` [EM-9199] was tested, and the “CX + DHT Antagonistic activity % Inhibition Bulbo” value (0.5 mg/rat/po) was 79%, the “CX + DHT Antagonistic activity % Inhibition SV” value (0.5 mg/rat/po) was 86% and the “CX + DHT Antagonistic activity % Inhibition Prostate” value (0.5 mg/rat/po) was 52%.
With `CC1(C)C(=O)N(c2ccc(C#N)c(C(F)(F)F)c2)C(=O)N1Cc1ccc(-c2cccnc2)cc1` [EM-9200] the “CX + DHT Antagonistic activity % Inhibition Bulbo” value (0.5 mg/rat/po) was 78%, the “CX + DHT Antagonistic activity % Inhibition SV” value (0.5 mg/rat/po) was 95% and the “CX + DHT Antagonistic activity % Inhibition Prostate” value (0.5 mg/rat/po) was 56%.
In the case of `N#Cc1ccc(N2C(=O)N(CCCOc3ccc(-c4ccncc4)c(F)c3)C3(CCCC3)C2=O)cc1Cl` [EM-9201], the “CX + DHT Antagonistic activity % Inhibition Bulbo” value (0.5 mg/rat/po) is reported as 29%, the “CX + DHT Antagonistic activity % Inhibition SV” value (0.5 mg/rat/po) is reported as 48% and the “CX + DHT Antagonistic activity % Inhibition Prostate” value (0.5 mg/rat/po) is reported as 10%.
For `Cc1c(N2C(=O)N(CCCOc3ccc(-c4ccncc4)cc3F)C(C)(C)C2=O)ccc(C#N)c1F` [EM-9204], the “CX + DHT Antagonistic activity % Inhibition Bulbo” value (0.5 mg/rat/po) was 66%, the “CX + DHT Antagonistic activity % Inhibition SV” value (0.5 mg/rat/po) was 91% and the “CX + DHT Antagonistic activity % Inhibition Prostate” value (0.5 mg/rat/po) was 62%.
With `Cc1c(N2C(=O)N(CCCOc3ccc(-c4ccncc4)c(F)c3)C(C)(C)C2=O)ccc(C#N)c1F` [EM-9205] the “CX + DHT Antagonistic activity % Inhibition Bulbo” value (0.5 mg/rat/po) was 73%, the “CX + DHT Antagonistic activity % Inhibition SV” value (0.5 mg/rat/po) was 87% and the “CX + DHT Antagonistic activity % Inhibition Prostate” value (0.5 mg/rat/po) was 65%.
With `Cc1c(N2C(=O)N(CCCOc3ccc(-c4cc[n+]([O-])cc4)c(F)c3)C(C)(C)C2=O)ccc(C#N)c1F` [EM-9208] the “CX + DHT Antagonistic activity % Inhibition Bulbo” value (0.5 mg/rat/po) was 76%, the “CX + DHT Antagonistic activity % Inhibition SV” value (0.5 mg/rat/po) was 88% and the “CX + DHT Antagonistic activity % Inhibition Prostate” value (0.5 mg/rat/po) was 52%.
With `Cc1cc(OCCCN2C(=O)N(c3ccc(C#N)c(Cl)c3)C(=O)C2(C)C)ccc1-c1cc[n+]([O-])cc1` [EM-9221] the “CX + DHT Antagonistic activity % Inhibition Bulbo” value (0.5 mg/rat/po) was 82%, the “CX + DHT Antagonistic activity % Inhibition SV” value (0.5 mg/rat/po) was 83% and the “CX + DHT Antagonistic activity % Inhibition Prostate” value (0.5 mg/rat/po) was 50%.
`CC1(C)C(=O)N(c2ccc(C#N)c(Cl)c2)C(=O)N1CCCOc1ccc(-c2cc[n+]([O-])cc2)cn1` [EM-9225] was tested, and the “CX + DHT Antagonistic activity % Inhibition Bulbo” value (0.1 mg/rat po) was 30 (0.1 mg/rat) %, the “CX + DHT Antagonistic activity % Inhibition SV” value (0.1 mg/rat po) was 68 (0.1 mg/rat) % and the “CX + DHT Antagonistic activity % Inhibition Prostate” value (0.1 mg/rat/po) was 32 0.1 mg/rat %.
With `CC1(C)C(=O)N(c2ccc(C#N)c(Cl)c2)C(=O)N1CCCOc1ccc(-c2cc[n+]([O-])cc2)cc1F` [EM-9226] the “CX + DHT Antagonistic activity % Inhibition Bulbo” value (0.5 mg/rat/po) was 73%, the “CX + DHT Antagonistic activity % Inhibition SV” value (0.5 mg/rat/po) was 87% and the “CX + DHT Antagonistic activity % Inhibition Prostate” value (0.5 mg/rat/po) was 54%.
With `CC1(C)C(=O)N(c2ccc(C#N)c(C(F)(F)F)c2)C(=O)N1Cc1ccc(-c2ccncc2)c(F)c1` [EM-9227] the “CX + DHT Antagonistic activity % Inhibition Bulbo” value (0.5 mg/rat/po) was 84%, the “CX + DHT Antagonistic activity % Inhibition SV” value (0.5 mg/rat/po) was 93% and the “CX + DHT Antagonistic activity % Inhibition Prostate” value (0.5 mg/rat/po) was 61%.
With `CC1(C)C(=O)N(c2ccc(C#N)c(C(F)(F)F)c2)C(=O)N1Cc1ccc(-c2cc[n+]([O-])cc2)c(F)c1` [EM-9228] the “CX + DHT Antagonistic activity % Inhibition Bulbo” value (0.5 mg/rat/po) was 81%, the “CX + DHT Antagonistic activity % Inhibition SV” value (0.5 mg/rat/po) was 94% and the “CX + DHT Antagonistic activity % Inhibition Prostate” value (0.5 mg/rat/po) was 57%.
In the case of `Cc1c(N2C(=O)N(CCCOc3ccc(-c4ccncc4)cc3Cl)C(C)(C)C2=O)ccc(C#N)c1Cl` [EM-9251], the “CX + DHT Antagonistic activity % Inhibition Bulbo” value (0.5 mg/rat/po) is reported as −46%, the “CX + DHT Antagonistic activity % Inhibition SV” value (0.5 mg/rat/po) is reported as 26% and the “CX + DHT Antagonistic activity % Inhibition Prostate” value (0.5 mg/rat/po) is reported as 45%.
In the case of `Cc1c(N2C(=O)N(CCCOc3ccc(-c4cc[n+]([O-])cc4)cc3Cl)C(C)(C)C2=O)ccc(C#N)c1Cl` [EM-9252], the “CX + DHT Antagonistic activity % Inhibition Bulbo” value (0.5 mg/rat/po) is reported as −101%, the “CX + DHT Antagonistic activity % Inhibition SV” value (0.5 mg/rat/po) is reported as 35% and the “CX + DHT Antagonistic activity % Inhibition Prostate” value (0.5 mg/rat/po) is reported as 40%.
With `Cc1c(N2C(=O)N(CCCOc3ccc(-c4ccncc4)c(F)c3)C(C)(C)C2=O)ccc(C#N)c1Cl` [EM-9253] the “CX + DHT Antagonistic activity % Inhibition Bulbo” value (0.5 mg/rat/po) was −44%, the “CX + DHT Antagonistic activity % Inhibition SV” value (0.5 mg/rat/po) was 44% and the “CX + DHT Antagonistic activity % Inhibition Prostate” value (0.5 mg/rat/po) was 30%.
In the case of `Cc1c(N2C(=O)N(CCCOc3ccc(-c4cc[n+]([O-])cc4)c(F)c3)C(C)(C)C2=O)ccc(C#N)c1Cl` [EM-9254], the “CX + DHT Antagonistic activity % Inhibition Bulbo” value (0.5 mg/rat/po) is reported as −47%, the “CX + DHT Antagonistic activity % Inhibition SV” value (0.5 mg/rat/po) is reported as 53% and the “CX + DHT Antagonistic activity % Inhibition Prostate” value (0.5 mg/rat/po) is reported as 45%.
With `CC1(C)NC(=O)N(c2ccc(C#N)c(Cl)c2)C1=O` [EM-9260] the “CX + DHT Antagonistic activity % Inhibition Bulbo” value (0.5 mg/rat/po) was 84%, the “CX + DHT Antagonistic activity % Inhibition SV” value (0.5 mg/rat/po) was 96% and the “CX + DHT Antagonistic activity % Inhibition Prostate” value (0.5 mg/rat/po) was 71%.
`COc1cc(-c2ccncc2)ccc1OCCCN1C(=O)N(c2ccc(C#N)c(Cl)c2)C(=O)C1(C)C` [EM-9261] was tested, and the “CX + DHT Antagonistic activity % Inhibition Bulbo” value (0.5 mg/rat/po) was 85%, the “CX + DHT Antagonistic activity % Inhibition SV” value (0.5 mg/rat/po) was 88% and the “CX + DHT Antagonistic activity % Inhibition Prostate” value (0.5 mg/rat/po) was 57%.
For `CC1(C)C(=O)N(c2ccc(C#N)c(Cl)c2)C(=O)N1CCCOc1ccc(-c2ccncc2F)cc1` [EM-9267], the “CX + DHT Antagonistic activity % Inhibition Bulbo” value (0.5 mg/rat/po) was 76%, the “CX + DHT Antagonistic activity % Inhibition SV” value (0.5 mg/rat/po) was 87% and the “CX + DHT Antagonistic activity % Inhibition Prostate” value (0.5 mg/rat/po) was 55%.
In the case of `CC1(C)C(=O)N(c2ccc(C#N)c(Cl)c2)C(=O)N1CCCOc1ccc(-c2ccncc2)cc1Cl.Cl` [EM-9287], the “CX + DHT Antagonistic activity % Inhibition Bulbo” value (0.3 mg/rat po) is reported as 71 (0.3 mg/rat) %, the “CX + DHT Antagonistic activity % Inhibition SV” value (0.3 mg/rat po) is reported as 101 (0.3 mg/rat) % and the “CX + DHT Antagonistic activity % Inhibition Prostate” value (0.3 mg/rat po) is reported as 37 (0.3 mg/rat) %.
`CC1(C)C(=O)N(c2ccc(C#N)c(Cl)c2)C(=O)N1CCCOc1ccc(-c2cc[n+]([O-])cc2)cc1Cl.Cl` [EM-9288] was tested, and the “CX + DHT Antagonistic activity % Inhibition Bulbo” value (0.3 mg/rat po) was 80 (0.3 mg/rat) %, the “CX + DHT Antagonistic activity % Inhibition SV” value (0.3 mg/rat po) was 101 (0.3 mg/rat) % and the “CX + DHT Antagonistic activity % Inhibition Prostate” value (0.3 mg/rat po) was 50 (0.3 mg/rat) %.
`Cc1c(N2C(=O)NC(C)(C)C2=O)ccc(C#N)c1Cl` [EM-9289] was tested, and the “CX + DHT Antagonistic activity % Inhibition Bulbo” value (0.5 mg/rat/po) was −66%, the “CX + DHT Antagonistic activity % Inhibition SV” value (0.5 mg/rat/po) was 50% and the “CX + DHT Antagonistic activity % Inhibition Prostate” value (0.5 mg/rat/po) was 47%.
With `Cc1c(N2C(=O)N(CCCOc3ccc(-c4ccncc4)c(Cl)c3)C(C)(C)C2=O)ccc(C#N)c1Cl` [EM-9290] the “CX + DHT Antagonistic activity % Inhibition Bulbo” value (0.5 mg/rat/po) was −75%, the “CX + DHT Antagonistic activity % Inhibition SV” value (0.5 mg/rat/po) was 47% and the “CX + DHT Antagonistic activity % Inhibition Prostate” value (0.5 mg/rat/po) was 41%.

— patent US9682960B2 (priority 2013, dated 2017)
